Apparent affinities of Ab-14 variants for a coronavirus HR2 peptide

Values reported by Engelhart et al. 2022, doi:10.1038/s41597-022-01779-4 (FLAb copy).

Target: peptide PDVDLGDISGINAS, taken from heptad repeat 2 (HR2) of SARS-CoV-2 spike.

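The parent was found by panning a naive human phage display library on the peptide. AAYL50 was designed without a model: most single CDR substitutions and a random sample of double and triple ones. In AlphaSeq, yeast of one mating type display the scFv and yeast of the other type display the target. After mating in shaken culture at 30 °C for 16 h, diploids were selected and their barcode pairs sequenced. A regression on co-assayed BCL2-family reference pairs converts the normalised counts of each replicate to an apparent Kd. The assay was run in three technical replicates.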

Ab-14 is the parent antibody, in scFv form: VH, then three GGGGS repeats, then VL. The heavy chain is unchanged in all variants.
VH: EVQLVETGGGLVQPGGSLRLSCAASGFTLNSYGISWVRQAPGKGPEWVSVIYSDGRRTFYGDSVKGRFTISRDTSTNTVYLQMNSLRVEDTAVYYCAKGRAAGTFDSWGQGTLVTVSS
VL: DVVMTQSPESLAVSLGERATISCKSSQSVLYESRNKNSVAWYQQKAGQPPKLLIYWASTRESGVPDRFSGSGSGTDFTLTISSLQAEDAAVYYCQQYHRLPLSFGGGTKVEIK

Each variant is given by its three light chain CDRs, as the data file delimits them; those of the parent are KSSQSVLYESRNKNSVA, WASTRES, QQYHRLPLS.
Numbers give log10(Kd / nM), so 0 is 1 nM and 3 is 1 µM. Smaller is tighter.
A pair that was not seen in that replicate is written "ND"; this usually means weak binding, but a binder can also be missed.

CDR-L1	CDR-L2	CDR-L3	log10 Kd, replicates	control signals
ASSQSHLYESRNKNSVA	WASTRES	QQYHRLPLS	2.07 1.99 2.19	0/9
KKSQSQLYESRNKNSVA	WAATRES	QQYHRLPLS	3.72 3.62 3.69	4/9 (4.29)
KSIQSVLYESREKNSVQ	WASTRES	QQYHRLPLS	4.81 4.08 ND	0/9
TSVQSQLYESRNKNSVA	WASTRES	QQYHRLPLS	2.74 2.34 2.11	0/9
KSSTSVLYESRNKNSVA	WASTRES	QQYLRLPLS	-0.26 -0.11 -0.06	0/9
KSSQSVLYESRNKNSVA	WASTREL	QQFHRLPNS	0.89 1.00 0.85	3/9 (3.52)
KSSQSVLYNSSNKNSVA	WASTRES	QQYHRMPLS	3.12 2.74 2.98	0/9
KSSQSVLYESRNKNSVA	WASVRES	QQYGRLPGS	ND ND ND	1/9 (3.68)
KSSQGVLYKSRNKNSVA	WASTRES	QQYHRLPLW	ND 3.71 4.78	1/9 (2.99)
KSSQSVLYCSRNKNSVA	WAFTRES	QQYKRLPLS	ND ND ND	1/9 (3.54)
KSNQSVLYESRNKNSVA	WARTRES	QQYFRLPLS	0.99 1.15 1.14	2/9 (5.49)
KSSQMVLTESRNKNSVA	WASTRES	QQYHRLPLK	ND ND ND	0/9
KSSQSVLYESNNKNSVA	WACTMES	QQYHRLPLS	3.73 3.34 4.74	5/9 (4.36)
KSFQWVLYESRNVNSVA	WASTRES	QQYHRLPLS	0.71 0.94 0.77	0/9
KSSASVLYESRNKNSVA	WASTRSS	LQYHRLPLS	ND ND ND	0/9
KSSQSLLYWSRNKNSVA	WQSTRES	QQYHRLPLS	2.24 2.02 1.95	0/9
KSSQSVLYESRKKNSVF	WASTREN	QQYHRLPLS	ND ND ND	0/9
KHSQSVLDESRNKNSVA	SASTRES	QQYHRLPLS	-0.66 -0.14 -0.55	2/9 (4.13)
KSSQSVLYESRNKNSVR	WASTRES	QQWHRLPLS	ND ND ND	0/9
KSSQSVLYESRNSNSVA	WASTRES	QQYHRVPLL	ND 4.80 ND	5/9 (4.96)
RSSQSVLYESRNKNSVA	WASTRES	QTYHRHPLS	1.20 1.27 1.67	2/9 (3.21)
KSSQSVLYESENKNSVA	WARTRLS	QQYHRLPLS	0.45 0.68 0.65	2/9 (3.77)
KSSQSVLYEGRNKNSVA	WAYTRES	QQYHGLPLS	ND 3.05 3.06	2/9 (4.99)
KSSQSVLYESRNKNSVA	WASTRES	QQYNRLLLS	0.63 0.85 0.77	6/9 (5.12)
KSSQEVLYESRNKYSVA	WASTRES	QIYHRLPLS	3.43 ND 3.87	1/9 (3.84)
KSSQSVKYESRNKNSVA	WASTREA	QTYHRLPLS	1.73 1.74 1.82	3/9 (4.15)
KSSQSVLYCSRNKNSVA	WASHRES	VQYHRLPLS	4.03 5.10 ND	2/9 (3.77)
KSSQSVLYESRNKNSVA	WASTRES	QQGHFLLLS	ND ND ND	0/9
KSVQSVLYDSRNANSVA	WASTRES	QQYHRLPLS	1.58 1.48 1.57	0/9
KSSQSVLWESRNWNFVA	WASTRES	QQYHRLPLS	ND 2.77 ND	0/9
KSSQSVCYESRNKNSVA	WATMRES	QQYHRLPLS	2.33 2.46 2.50	2/9 (4.88)
KSSQSVLYESCNKNSVA	GASTLES	QQYHRLPLS	0.18 0.47 0.26	1/9 (5.20)
KFSQSVLYESRTKNSVA	WASTRES	QQYHRLYLS	1.91 1.39 1.71	0/9
KSSQSVLYESRNKNSVA	WASTRES	RQYHRLPLS	ND 4.48 ND	4/9 (4.56)
KSSQSVLEESRNKNSVE	WASTRES	QQYNRLPLS	ND ND ND	4/9 (3.89)

The opening 4 entries, copied out:

CDR-L1	CDR-L2	CDR-L3	log10 Kd, replicates	control signals
ASSQSHLYESRNKNSVA	WASTRES	QQYHRLPLS	2.07 1.99 2.19	0/9
KKSQSQLYESRNKNSVA	WAATRES	QQYHRLPLS	3.72 3.62 3.69	4/9 (4.29)
KSIQSVLYESREKNSVQ	WASTRES	QQYHRLPLS	4.81 4.08 ND	0/9
TSVQSQLYESRNKNSVA	WASTRES	QQYHRLPLS	2.74 2.34 2.11	0/9

As a blank, each scFv also met three strains without target: over library AAYL50, 18% of these pairings were detected, typically at 4.19 and seldom below 2.99. Also given: how often the same scFv was detected with the empty control strains, with their mean in brackets.